Experimental data: PMC8863796, “Combination of antiviral drugs inhibits SARS-CoV-2 polymerase and exonuclease and demonstrates COVID-19 therapeutic potential in viral cell culture” (Communications Biology, 2022)
“Also recorded” adds a separate entry of the source.

How the values were obtained:
[1] = molecular target: T1, SARS-CoV-2 exonuclease complex (nsp14/nsp10) (Severe acute respiratory syndrome coronavirus 2, UniProt P0DTD1); parameters: method as in earlier work; details: previously demonstrated; cited from earlier work
[2] = molecular target: T1, SARS-CoV-2 exonuclease complex (nsp14/nsp10); assay type: biochemical

For COC(=O)N[C@H](C(=O)N1CCC[C@H]1c1nc(-c2ccc(-c3ccc(-c4c[nH]c([C@@H]5CCCN5C(=O)[C@@H](NC(=O)OC)C(C)C)n4)cc3)cc2)c[nH]1)C(C)C [Daclatasvir], the “inhibition of SARS-CoV-2 exonuclease” value [1] is listed as “can inhibit the SARS-CoV-2 exonuclease” and the “inhibition of SARS-CoV-2 exonuclease activity” value [2] is listed as “exhibits inhibition of exonuclease activity, but at higher concentrations than either Pibrentasvir or Ombitasvir; also recorded: exonuclease activity was reduced”.
